Assay results taken from PubChem BioAssay AID438 (Columbia University Molecular Screening Center, 2006).
The entries are a selection whose mix differs from that of the whole data set. Some results for these compounds are left out of this collection, so the calls shown say nothing about other tests. Activity calls are given as the source filed them.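 Rule for the calls: active = inhibition above 20% together with a positive visual image hit; inconclusive = visual image hit but inhibition not above 20%; inactive = no visual image hit.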

test: inhibitors of TNFa-induced NFkB p65 translocation, primary screen, imaging, HUVEC, MLSMR starter and 10KST1 sets (AID 438); settings: HUVEC TNFa-induced p65 nuclear translocation, at 2 µM, active compounds read high, 0% TNFa-plus-vehicle, 100% no-TNFa wells;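 note: compound added about 3h40 before a 20 min TNFalpha stimulation; signal is the nuclear over cytoplasmic p65 intensity ratio per well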

| Compound | inhibition |
| --- | --- |
| O=C(OC1CN2CCC1CC2)C(CO)(c1ccccc1)c1ccccc1 (stereo unspecified) | inactive: -0.8% |
